This is an account of results in patent US8952023B1, “Compounds useful for treating injuries from warfare agents” (dated 2015).

Protein sequences, listed by entry. Tags and fused reporters are not part of them.
UniProt O75762, whole entry, looked up: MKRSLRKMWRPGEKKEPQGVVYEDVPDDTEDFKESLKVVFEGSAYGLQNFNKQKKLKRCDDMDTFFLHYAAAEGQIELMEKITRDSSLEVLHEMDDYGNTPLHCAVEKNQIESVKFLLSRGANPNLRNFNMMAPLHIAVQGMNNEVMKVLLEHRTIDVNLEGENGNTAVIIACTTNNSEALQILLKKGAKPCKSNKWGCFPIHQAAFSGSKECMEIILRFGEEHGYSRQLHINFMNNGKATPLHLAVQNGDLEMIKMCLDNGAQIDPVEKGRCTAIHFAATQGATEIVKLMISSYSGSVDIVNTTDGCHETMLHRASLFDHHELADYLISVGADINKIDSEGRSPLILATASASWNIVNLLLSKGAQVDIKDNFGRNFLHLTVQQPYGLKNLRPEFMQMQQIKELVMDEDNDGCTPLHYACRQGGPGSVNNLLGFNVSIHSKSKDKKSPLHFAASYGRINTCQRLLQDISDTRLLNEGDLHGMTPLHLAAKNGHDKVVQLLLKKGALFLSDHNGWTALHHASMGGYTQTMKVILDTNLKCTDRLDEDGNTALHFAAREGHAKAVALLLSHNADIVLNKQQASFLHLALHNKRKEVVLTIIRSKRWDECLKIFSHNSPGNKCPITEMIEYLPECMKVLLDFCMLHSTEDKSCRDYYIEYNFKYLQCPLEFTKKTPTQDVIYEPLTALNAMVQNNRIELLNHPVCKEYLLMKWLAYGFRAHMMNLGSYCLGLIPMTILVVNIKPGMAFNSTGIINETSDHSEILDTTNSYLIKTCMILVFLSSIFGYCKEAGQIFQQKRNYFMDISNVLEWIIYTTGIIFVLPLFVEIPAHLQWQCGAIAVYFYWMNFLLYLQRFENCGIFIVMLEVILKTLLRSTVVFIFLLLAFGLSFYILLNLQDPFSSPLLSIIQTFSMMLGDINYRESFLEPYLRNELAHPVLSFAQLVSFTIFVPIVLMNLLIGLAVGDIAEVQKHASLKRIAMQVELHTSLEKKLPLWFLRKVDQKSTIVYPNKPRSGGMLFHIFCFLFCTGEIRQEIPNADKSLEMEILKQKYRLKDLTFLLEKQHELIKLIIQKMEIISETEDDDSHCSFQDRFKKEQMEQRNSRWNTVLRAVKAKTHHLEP

For the assay, the target named is human TRPA1 (Homo sapiens, UniProt O75762). Briefly: Whole-cell patch clamp experiments, block of TRPA1 current in the continued presence of AITC.
Setting [1] is: read-out: Activity (IC50), the 1st table, scaffold drawing 19.
Setting [2] is: read-out: Activity (IC50), the 2nd table, scaffold drawing 20.

The structures appear in SMILES notation. Where two headings read alike, the source gives them in different places.

Turning to `COCCCOc1cccc(C2NC(=S)NC3=C2C(=O)c2ccccc23)c1` (stereo not drawn), the IC50 under setting [1] fell in the range of 100 to 500 nM.

For `O=C1C2=C(NC(=S)NC2c2cc(O)ccc2Br)c2cccc(O)c21` (stereo not drawn), the IC50 under setting [2] was more than 1000 nM.

For `O=C1C2=C(NC(=S)NC2c2cc(O)ccc2Br)c2cccc(Cl)c21` (stereo not drawn), the IC50 under setting [2] is less than 100 nM.

For the molecule `O=C1C2=C(NC(=S)NC2c2ccccc2F)c2ccccc21` (stereo not drawn), the IC50 under setting [1] was 100 to 500 nM.

For `C#CCOc1cccc(C2NC(=O)NC3=C2C(=O)c2ccccc23)c1` (stereo not drawn), the IC50 (read-out: Activity (IC50), the 5th table, scaffold drawing 23) lay within 100 to 500 nM.

As for `O=C1C2=C(NC(=S)NC2c2cc(O)ccc2Br)c2cc(O)ccc21` (stereo not drawn), the IC50 under setting [2] is more than 1000 nM.

In the case of `Cc1ccc2c(c1)C(=O)C1=C2NC(=S)NC1c1cc(O)ccc1Br` (stereo not drawn), the IC50 under setting [2] fell in the range of 500 to 1000 nM.

With `O=C1NC2=C(C(=O)c3ccccc32)C(c2cccc3nonc23)N1` (stereo not drawn), the IC50 (read-out: Activity (IC50), the 6th table, scaffold drawing 24) was more than 1000 nM.

`CCCCc1cccc(C2NC(=O)NC3=C2C(=O)c2cccnc23)c1` (stereo not drawn): the IC50 (read-out: Activity (IC50), the 9th table, scaffold drawing 34) was in the range of 100 to 500 nM.

As for `COc1ccc(C2NC(=S)NC3=C2C(=O)c2ccccc23)cc1` (stereo not drawn), the IC50 under setting [1] was in the range of 100 to 500 nM.

With `O=C1C2=C(NC(=S)NC2c2cc(O)ccc2Br)c2ccc(O)cc21` (stereo not drawn), under setting [2], the IC50 was more than 1000 nM.

For `O=C1C2=C(NC(=S)NC2c2cc(O)ccc2Br)c2ccc(Cl)cc21` (stereo not drawn), under setting [2], the IC50 was more than 1000 nM.
